Assay results as given in paper PMC8080777, “Discovery, optimization, and evaluation of non-bile acid FXR/TGR5 dual agonists” (Scientific Reports, 2021).

Experiments:
[1] = target: T1, FXR (Homo sapiens, UniProt Q96RI1); test: CHO cell-based FXR luciferase reporter assay (Indigo Biosciences)
T1 construct: host or cells: CHO cells
T1 sequence (Q96RI1 1-486): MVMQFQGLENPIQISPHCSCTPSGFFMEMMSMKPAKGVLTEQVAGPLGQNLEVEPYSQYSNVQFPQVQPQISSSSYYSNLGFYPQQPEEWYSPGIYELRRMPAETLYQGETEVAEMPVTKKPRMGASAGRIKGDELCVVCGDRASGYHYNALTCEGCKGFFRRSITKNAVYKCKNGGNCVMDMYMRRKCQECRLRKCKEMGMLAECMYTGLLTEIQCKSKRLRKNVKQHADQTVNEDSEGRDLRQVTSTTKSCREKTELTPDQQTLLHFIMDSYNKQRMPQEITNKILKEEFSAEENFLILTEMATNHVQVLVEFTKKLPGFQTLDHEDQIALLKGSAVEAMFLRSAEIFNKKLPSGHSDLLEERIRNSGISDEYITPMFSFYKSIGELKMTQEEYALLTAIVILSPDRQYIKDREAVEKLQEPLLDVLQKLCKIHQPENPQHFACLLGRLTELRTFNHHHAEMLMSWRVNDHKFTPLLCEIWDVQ
Protocol: To evaluate direct agonist activities against FXR, test compounds were evaluated using a CHO cell-based FXR assay by Indigo Biosciences (State College, PA), in which cells were transfected with an FXR luciferase reporter system.
To directly evaluate the in vitro agonist activity towards FXR, test compounds were evaluated in CHO cells transfected with FXR responsive luciferase reporter (Nuclear Receptor & In Vitro Toxicology Solutions, Indigo Biosciences, State College, PA, USA). […] Each compound was tested in duplicate, and the average value was reported[35],[36]. […]
To directly evaluate the in vitro agonist activity towards FXR, test compounds were evaluated in CHO cells transfected with FXR responsive luciferase reporter (Nuclear Receptor & In Vitro Toxicology Solutions, Indigo Biosciences, State College, PA, USA). […]

[2] = target: T2, TGR5 (Homo sapiens, UniProt Q8TDU6); test: TGR5 cAMP assay in CHO cells transfected with TGR5 (cAMP Hunter eXpress, Discover X); type: cell-based; details: % vs INT-767 10 µM as 100%
T2 construct: host or cells: CHO cells
T2 sequence (Q8TDU6 1-330): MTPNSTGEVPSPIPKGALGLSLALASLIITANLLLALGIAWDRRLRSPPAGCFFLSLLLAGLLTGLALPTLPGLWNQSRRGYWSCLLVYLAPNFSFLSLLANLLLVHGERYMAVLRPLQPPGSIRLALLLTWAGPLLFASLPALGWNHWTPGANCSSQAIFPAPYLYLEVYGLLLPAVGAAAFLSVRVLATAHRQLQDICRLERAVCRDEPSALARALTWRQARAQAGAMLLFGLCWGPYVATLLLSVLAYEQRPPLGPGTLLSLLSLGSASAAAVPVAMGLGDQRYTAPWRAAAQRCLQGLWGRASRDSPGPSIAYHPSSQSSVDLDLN
Protocol: TGR5 agonist activity was evaluated by transfecting CHO cells with TGR5 using the Discover X expression kit (cAMP Hunter eXpress GPCR Assay, Discover X Fremont, CA). Cells were incubated with test compounds for 0.5 h, and intracellular cAMP levels were measured using the multi-mode microplate reader.
(§1) TGR5 agonist activity was evaluated by transfecting CHO cells with TGR5 using the Discover X expression kit (cAMP Hunter eXpress Assay Kit, Discover X Fremont, CA, USA). Cells were incubated with the test compounds for 0.5 h, and intracellular cAMP levels were measured using Multi-Mode Microplate Reader (FlexStation 3, Molecular Devices Inc., San Jose, CA, USA).
Each compound was tested at concentrations of 10, 1, or 0.1 µM in duplicate (n = 2), with the average value shown.
S4. In vitro, in vivo assay, and selectvity. […]
In vitro TGR5 agonist assay protocol
as §1
Each compound was tested at concentrations of 10, 1, or 0.1 µM in duplicate (n=2), with the […]

CN(C)c1ccc(-c2ccc(CN(C(=O)c3ccc(O)cc3)c3cc(Cl)cc(Cl)c3)cc2)cc1 [Compound 13ad]
FXR agonist activity (in words) [1]: strong FXR activities | FXR Efficacy (%) (1 µM) ([1]; 1 µM, % vs OCA 1 µM as 100%): 88.2% | TGR5 Efficacy (%) (10 µM) [2]: 4.4%
